Assay: Partition coefficient (log P), reverse phase HPLC

Compound: CCOCCO[C@@H]1CC[C@@H](C[C@@H](C)[C@@H]2CC(=O)[C@H](C)/C=C(\C)[C@@H](O)[C@@H](OC)C(=O)[C@H](C)C[C@H](C)/C=C/C=C/C=C(\C)[C@@H](OC)C[C@@H]3CC[C@@H](C)[C@@](O)(O3)C(=O)C(=O)N3CCCC[C@H]3C(=O)O2)C[C@H]1OC [BIOLIMUS A9, 42-O-(2-ethoxyethyl)rapamycin]
- lipophilicity relative to sirolimus or everolimus: approximately ten times more lipophilic than sirolimus or everolimus
